Only a part is listed here, and it is no random draw. Activity calls are given as the source filed them.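 Rule for the calls: active = inhibition above the campaign's mean inhibition across all tested compounds plus 3 SD (cut at about 9.5% in these data); inactive = the rest.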

The chains behind the UniProt entries cited, without tags or fusion partners. Where a name states a change or a piece, a line headed by the entry shows the natural chain unless it says otherwise.
UniProt P53041: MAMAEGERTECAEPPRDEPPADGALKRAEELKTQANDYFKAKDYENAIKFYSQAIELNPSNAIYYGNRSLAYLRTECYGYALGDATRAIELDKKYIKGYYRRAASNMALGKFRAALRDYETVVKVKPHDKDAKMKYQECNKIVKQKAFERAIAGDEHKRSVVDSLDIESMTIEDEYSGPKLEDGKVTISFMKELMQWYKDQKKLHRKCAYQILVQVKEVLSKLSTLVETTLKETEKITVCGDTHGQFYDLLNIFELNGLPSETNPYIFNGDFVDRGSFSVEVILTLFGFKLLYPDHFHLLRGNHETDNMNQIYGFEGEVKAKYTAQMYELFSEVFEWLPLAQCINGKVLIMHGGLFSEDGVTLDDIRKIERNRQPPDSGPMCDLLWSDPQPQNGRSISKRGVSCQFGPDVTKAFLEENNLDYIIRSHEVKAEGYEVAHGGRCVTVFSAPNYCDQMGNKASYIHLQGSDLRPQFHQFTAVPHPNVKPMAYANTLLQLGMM

By inhibition is commonly meant the drop in the measured response relative to a control, in per cent.

In the test the target is Serine/threonine-protein phosphatase 5 (Homo sapiens) (UniProt P53041). Nature of the test: PP5 phosphatase inhibitors, primary screen, biochemical, fluorescence (AID 1987).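 Note: 0% = DMSO only and 100% = 100 µM cantharidin control.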 To be noted: purified PP5c, OMFP substrate fluorescence; at 6.7 µM; active compounds read high.
For the compound `CC(C)(C)C(=O)NC(Sc1ccccc1)C(Cl)(Cl)Cl` (stereo unspecified), the inhibition was inactive: -1.54%.

Consider `CCOc1ccc(C2=NCC(CBr)S2)cc1` (stereo unspecified), for which the inhibition is inactive: -0.93%.

`O=P1(Nc2nc3ccc(Cl)cc3s2)COc2ccccc2O1` (stereo unspecified): the inhibition is inactive: -0.6%.

`CC(=O)Nc1ccc(Oc2c([N+](=O)[O-])cc([N+](=O)[O-])cc2[N+](=O)[O-])cc1`: the inhibition was inactive: -0.57%.

On to `CC(=O)Nc1ccc([As](=O)(O)O)c(O)c1`, for which the inhibition was inactive: 0.51%.

In the case of `C[C@H]1OP(=O)(Oc2ccccc2)C[C@@H]2O[C@@H]21` (stereo partly specified), the inhibition is inactive: 1.67%.

On to `C[C@@H]1C=CCP(=O)(Oc2ccccc2)O1` (stereo partly specified), for which the inhibition is inactive: 0.62%.

For `Cc1ccccc1CN(C)C(=O)COC(=O)C(O)(c1ccccc1)c1ccccc1`, the inhibition was inactive: 5.06%.

As to `CC(=O)c1ccc(N2CC2c2ccncc2)cc1` (stereo unspecified), the inhibition is inactive: 1.22%.

Turning to `CCOC(=O)NC(Sc1ccccc1)C(Cl)(Cl)Cl` (stereo unspecified), the inhibition was inactive: 3.37%.

`Cc1ccc(NP(=O)(Oc2cccc(C)c2)Oc2cccc(C)c2)nc1`: the inhibition was inactive: 3.12%.

Regarding `c1ccc(-c2nn[nH]n2)c(-c2nn[nH]n2)c1`, the inhibition is inactive: 0.69%.

Turning to `CCNC(=S)/N=C(\N)N[N+](=O)[O-]`, the inhibition is inactive: 0.31%.

For the compound `O=C(NC1CCS(=O)(=O)C1)NP(=S)(Oc1ccccc1)Oc1ccccc1` (stereo unspecified), the inhibition was inactive: 1.15%.

In the case of `CN(C)C(=O)Oc1noc2ccccc12`, the inhibition is inactive: -1.13%.

Take `Cc1ccccc1OP(=O)(Nc1ccccn1)Oc1ccccc1C`: the inhibition is inactive: 5.56%.

As for `CCC(=O)N1C2C3N(C(=O)CC)C1C1N(C(=O)CC)C(C(N1C(=O)CC)N3C(=O)CC)N2C(=O)CC`, the inhibition is inactive: -1.54%.

Regarding `O=C(OC1CN2CCC1CC2)c1ccccc1` (stereo unspecified), the inhibition was inactive: 1.57%.

For `Cc1ccc(OP(=O)(Nc2ccccn2)Oc2ccc(C)cc2)cc1`, the inhibition is inactive: 3.85%.

Regarding `CC(=O)NC(SC(=S)N(CC(C)C)CC(C)C)C(Cl)(Cl)Cl` (stereo unspecified), the inhibition was inactive: 0.94%.

For `COC(=O)c1cc2c(s1)N=C(c1ccccc1)N(C)P2(=O)N1CCOCC1` (stereo unspecified), the inhibition is inactive: 2.6%.

Regarding `C[C@H]1OP(=O)(Oc2ccccc2)[C@H](O)[C@H](O)[C@H]1N=[N+]=[N-]` (stereo partly specified), the inhibition is inactive: 3.8%.

With `O=P(Nc1nc2ccccc2s1)(c1ccccc1)c1ccccc1`, the inhibition was inactive: -1.73%.

As to `O=P(Nc1ccccn1)(c1ccc(Br)cc1)c1ccc(Br)cc1`, the inhibition was inactive: 0.53%.

In the case of `CN(C)C1(CNC(=O)c2ccc(Cl)c(S(N)(=O)=O)c2)CCCCC1`, the inhibition is inactive: 0.51%.

`O=C(OC1CN2CCC1CC2)c1cccc(Cl)c1` (stereo unspecified): the inhibition is inactive: 1.93%.

On to `C(Cc1nn[nH]n1)Cc1nn[nH]n1`, for which the inhibition was inactive: 1.2%.

For the compound `Nc1ccc([As](=O)(O)c2ccc([N+](=O)[O-])cc2)cc1`, the inhibition is inactive: -0.04%.

As to `O=[As](O)(c1ccccc1)c1ccc(O)cc1`, the inhibition was inactive: -1.66%.

With `O=[N+]([O-])c1ccc(O)c(/C=N/Nc2ccc([N+](=O)[O-])cc2[N+](=O)[O-])c1`, the inhibition was inactive: 3.86%.

Turning to `O=[N+]([O-])c1ncn(CCn2cnc([N+](=O)[O-])n2)n1`, the inhibition is inactive: -0.48%.

Take `CC(=O)NC(SC(=S)N(C)C)C(Cl)(Cl)Cl` (stereo unspecified): the inhibition was inactive: 0.11%.

`c1nnnn1CCn1cnnn1`: the inhibition is inactive: 2.98%.

Take `CC(C)C(=O)NC(Sc1ccccc1)C(Cl)(Cl)Cl` (stereo unspecified): the inhibition was inactive: 3.61%.

Turning to `O=P(Nc1nccs1)(c1ccccc1)c1ccccc1`, the inhibition is inactive: 0.41%.

As to `CCc1nc2c(n1)c1c(non1O)c1c2no[n+]1[O-]`, the inhibition is inactive: 0.18%.

As for `O=[N+]([O-])c1cc([N+](=O)[O-])c(CCNc2ccccc2)c([N+](=O)[O-])c1`, the inhibition was inactive: 1.74%.

Regarding `Cc1ccc(NP(=O)(Oc2ccccc2)Oc2ccccc2)nc1`, the inhibition is inactive: -2.33%.

Regarding `O=[N+]([O-])c1cccc2n[nH]nc12`, the inhibition is inactive: -0.67%.

In the case of `CC(=O)N1C2C3N(C(C)=O)C1C1N(C(C)=O)C(C(N1C(C)=O)N3C(C)=O)N2C(C)=O`, the inhibition was inactive: -0.7%.

With `COc1ccc(C2=NCC(CBr)S2)cc1` (stereo unspecified), the inhibition was inactive: 0.18%.

`CC1CCN(C(=O)Oc2c(Cl)cc(Cl)c3cccnc23)CC1`: the inhibition was inactive: 2.97%.

In the case of `CN(C)C(=O)OCCc1n(C)cc[n+]1C`, the inhibition is inactive: -3.16%.

On to `CC(C)=N/N=C(\N)N[N+](=O)[O-]`, for which the inhibition is inactive: -0.69%.

Regarding `CCN(/C(=N/P(=O)(N1CCOCC1)N1CCOCC1)N1CCOCC1)c1ccc(OC)cc1`, the inhibition is inactive: 5.28%.

In the case of `C[N+]1=C2C=CC=CC=C2SC12C([N+](=O)[O-])=CC([N+](=O)[O-])=C[C-]2[N+](=O)[O-]` (stereo unspecified), the inhibition was inactive: 4.95%.

On to `Nc1ccc([As](=O)(O)c2ccc(N)cc2)cc1`, for which the inhibition is inactive: -1.57%.

Regarding `O=C(Nc1cc([As](=O)(O)O)ccc1O)c1ccccc1`, the inhibition was inactive: -0.02%.

As to `O=[N+]([O-])c1cccc(NC2=NCC(CBr)S2)c1` (stereo unspecified), the inhibition is inactive: -1.04%.

Consider `O=[N+]([O-])c1ncn(CCn2ncnc2[N+](=O)[O-])n1`, for which the inhibition was inactive: -2.33%.

Consider `CC(C)(C)C(=O)NC(Sc1ccncn1)C(Cl)(Cl)Cl` (stereo unspecified), for which the inhibition was inactive: 0.29%.

Take `Cc1ccc(NP(=O)(Oc2ccccc2F)Oc2ccccc2F)nc1`: the inhibition was inactive: 0.8%.

For the compound `CN(C(=O)Cc1ccc(Cl)c(Cl)c1)[C@H]1CCCC[C@@H]1N1CCCC1`, the inhibition was inactive: -0.14%.

In the case of `Cc1cc(SC(NC(=O)c2ccc(F)cc2)C(Cl)(Cl)Cl)ncn1` (stereo unspecified), the inhibition is inactive: 0.48%.

As to `CCOP(=O)(Nc1ccccc1)OCC`, the inhibition was inactive: 0.11%.

As to `O=P(Nc1nc2ccc(Cl)cc2s1)(c1ccccc1)c1ccccc1`, the inhibition was inactive: 3.54%.

As for `CC(=O)Nc1ccc([As](=O)(O)O)cc1`, the inhibition is inactive: 2.23%.

Turning to `O=C(O)c1ccccc1[As](=O)(O)O`, the inhibition was inactive: 1.57%.

With `O=[N+]([O-])c1cc([N+](=O)[O-])c(CCN2CCOCC2)c([N+](=O)[O-])c1`, the inhibition is inactive: 0.18%.

As for `CN1CCCC(OC(=O)C(c2ccccc2)c2ccccc2)C1` (stereo unspecified), the inhibition is inactive: -0.94%.

On to `Clc1ccc(Cl)c(NC2=NCC(CBr)S2)c1` (stereo unspecified), for which the inhibition is inactive: 0.1%.

With `Cc1ccc(OP(=O)(Nc2nccs2)Oc2ccc(C)cc2)cc1`, the inhibition was inactive: -0.14%.

As to `COc1ccccc1OP(=O)(Nc1ccc(C)cn1)Oc1ccccc1OC`, the inhibition is inactive: -0.96%.

In the case of `Cc1ccc(N/C(=N/P(=O)(N2CCOCC2)N2CCOCC2)N2CCOCC2)cc1`, the inhibition was inactive: -0.35%.

Turning to `CN(C(=O)Cc1ccc(Cl)c(Cl)c1)[C@H]1CCCC[C@H]1N1CCCC1`, the inhibition is active: 12.7%.

Turning to `NC(=O)c1cc([N+](=O)[O-])cc([N+](=O)[O-])c1N`, the inhibition was inactive: -0.94%.

On to `O=C(NC(Sc1ccncn1)C(Cl)(Cl)Cl)c1ccccc1` (stereo unspecified), for which the inhibition is inactive: -0.18%.

Take `Cc1c2non([O-])c-2c(C)[n+](=O)[n+]1[O-]`: the inhibition is inactive: 1.27%.

For `Oc1ccccc1CNc1ccccn1`, the inhibition was inactive: -0.08%.

Take `Nc1cc(N)c2nonc2c1[N+](=O)[O-]`: the inhibition was inactive: -0.59%.

Consider `CC(C)CC(=O)NC(Sc1ccc(Cl)cc1)C(Cl)(Cl)Cl` (stereo unspecified), for which the inhibition is inactive: 3.85%.

For `COc1cc(I)ccc1[As](=O)(O)O`, the inhibition is inactive: -1.68%.

Consider `COc1ccc2nc(NP(=O)(c3ccccc3)c3ccccc3)sc2c1`, for which the inhibition was inactive: -0.37%.

Regarding `Cc1c2c(nc3ccccc13)SC(C(Cl)Cl)C2` (stereo unspecified), the inhibition was inactive: -0.74%.

With `Cc1cc(=O)[nH]c(N[N+](=O)[O-])n1`, the inhibition is inactive: 0.15%.

`O=C(OC1CN2CCC1CC2)C12CC3CC(CC(C3)C1)C2` (stereo unspecified): the inhibition is inactive: 3.21%.

As to `COc1ccc(N/C(=N/P(=O)(N2CCOCC2)N2CCOCC2)N2CCOCC2)cc1`, the inhibition is inactive: -1.17%.

Consider `Cc1ccc(OP(=O)(Nc2ccc([N+](=O)[O-])cn2)Oc2ccc(C)cc2)cc1`, for which the inhibition was inactive: 0.45%.

As to `Cc1ccc2nc3c(c(C)c2c1)CC(C(Cl)Cl)S3` (stereo unspecified), the inhibition was inactive: 3.64%.

Regarding `COc1cc(C(=O)NCC2(N3CCOCC3)CCCCC2)ccc1OCC(C)C`, the inhibition is inactive: 2.73%.

Take `C[As](=O)(O)c1cccc(C(=O)O)c1`: the inhibition is inactive: 2.35%.

As for `O=[As](O)(c1ccc(O)cc1)c1ccccc1O`, the inhibition was inactive: 0.53%.

With `O=[N+]([O-])c1cc([N+](=O)[O-])c(-c2ccn[nH]2)s1`, the inhibition was inactive: 0.68%.

On to `CC(C)NC(=O)NP(=O)(Oc1ccccc1)Oc1ccccc1`, for which the inhibition is inactive: -0.09%.

For the compound `CCN(CC)C(=S)SC(NC=O)C(Cl)(Cl)Cl` (stereo unspecified), the inhibition was inactive: -0.16%.

On to `ClCCSc1nnc(-c2cccnc2)o1`, for which the inhibition was inactive: 1.13%.

For the compound `CC(C)c1ccc(OP(=O)(Nc2ccccn2)Oc2ccccc2F)cc1` (stereo unspecified), the inhibition was inactive: 1.34%.

Take `Cc1cc(SC(NC(=O)c2ccccc2)C(Cl)(Cl)Cl)nc(C(C)C)n1` (stereo unspecified): the inhibition was inactive: -0.3%.

As to `CCOC(=O)Nc1ccc([As](=O)(O)O)c(O)c1`, the inhibition was inactive: 0.75%.

On to `O=P(Nc1ccccn1)(c1cccc2ccccc12)c1cccc2ccccc12`, for which the inhibition was inactive: 1.72%.

`Cc1cc(SC(NC=O)C(Cl)(Cl)Cl)ncn1` (stereo unspecified): the inhibition was inactive: 4.36%.

As for `CCOC(=O)Nc1cccc([As](=O)(O)O)c1`, the inhibition was inactive: -1.05%.

In the case of `O=C(Nc1ccncc1[N+](=O)[O-])c1ccc([N+](=O)[O-])cc1[N+](=O)[O-]`, the inhibition was inactive: 0.08%.

In the case of `O=C(COc1ccccc1)OC1CN2CCC1CC2` (stereo unspecified), the inhibition was inactive: -1.75%.

Turning to `CCC(C)N(CC(C)C)C(=S)SC(NC(C)=O)C(Cl)(Cl)Cl` (stereo unspecified), the inhibition was inactive: -0.31%.

As for `O=C(OC1CN2CCC1CC2)c1cccc([N+](=O)[O-])c1` (stereo unspecified), the inhibition is inactive: -0.71%.

`CCOC(=O)c1ccc(NC(=O)C(C)(CCl)SC)cc1` (stereo unspecified): the inhibition was inactive: 1.6%.

With `CC(C)(C)C(=O)NC(Sc1ncccn1)C(Cl)(Cl)Cl` (stereo unspecified), the inhibition is inactive: -2.44%.

In the case of `Clc1n[nH]nc1-c1nn[nH][15n]1`, the inhibition was inactive: -1.96%.

With `CCOP(=O)(NC(=NC(C)c1ccccc1)NC(C)c1ccccc1)OCC` (stereo unspecified), the inhibition is inactive: 1.2%.

With `O=P1(Nc2ccccn2)COc2ccccc2OC1`, the inhibition was inactive: 1.6%.

Values taken from PubChem BioAssay AID1987 (The Scripps Research Institute Molecular Screening Center, 2009).
